The structures appear in SMILES notation.

The text below walks through data of PMC9923772 (ACS chemical neuroscience, 2020).

In test [1] the target is T1, human DOR (Homo sapiens, UniProt P41143). In words: biochemical. The class given is binding.
The target in test [2] is T1, human DOR. In words: biochemical. The format is biochemical. To be noted: for Potency, EC50 DOR: [35S]GTPγS stimulation, DNS = does not stimulate. For orientation: Binding of GTPγS marks nucleotide exchange on a G protein.
Test [3] addresses T2, human MOR (Homo sapiens, UniProt P35372). In words: biochemical.
Test [4] concerns the target T3, human KOR (Homo sapiens, UniProt P41145). In words: [35S]-GTPγS binding assay, CHO-KOR membranes. The class given is biochemical. To be noted: for Potency, EC50 KOR: [35S]GTPγS stimulation, DNS = does not stimulate.
Test [5] deals with T3, human KOR. The format is binding.
Test [6] deals with T2, human MOR. In words: biochemical. The format is binding.

A word on the Ki: it is a measure of affinity in units of concentration, obtained from inhibition or displacement. As usually defined, the EC50 is the concentration needed to bring the measured effect to its halfway point. A higher EC50 goes with lower potency in that assay. Turning to `CCCOc1ccc(CN2CCCCC2)cc1CNC(=O)[C@@H](N)Cc1c(C)cc(O)cc1C.O=C(O)C(F)(F)F` [C, (S)-3-(4-Hydroxy-2,6-dimethylphenyl)-1-oxo-1-((5-(piperidin-1-ylmethyl)-2-propoxybenzyl)amino)propan-2-aminium Trifluoroacetate], the Ki in test [1] was 20.1 ± 2.1 nM; in test [5], 460 ± 170 nM; in test [6], 4.6 ± 0.2 nM. For the same compound, the values for the EC50 in test [2] and in test [3] were 117 ± 45 nM and 183 ± 46 nM, respectively. For the same compound, in test [4] (Table 2), the “Potency, EC50 KOR” value was “DNS”.

As to `CCCOc1ccc(CN2CCc3ccccc3C2)cc1CNC(=O)[C@@H](N)Cc1c(C)cc(O)cc1C.O=C(O)C(F)(F)F` [G, (S)-1-((5-((3,4-Dihydroisoquinolin-2(1H)-yl)methyl)-2-propoxybenzyl)amino)-3-(4-hydroxy-2,6-dimethylphenyl)-1-oxopropan-2-aminium Trifluoroacetate], the “Potency, EC50 KOR” value in test [4] (Table 2) is reported as “DNS”. The affinity in test [5] corresponds to a Ki of 202 ± 18 nM.

Regarding `Cc1cc(O)cc(C)c1C[C@H](N)C(=O)NCCCCCN1CCc2ccccc2C1.O=C(O)C(F)(F)F` [I, (S)-1-((5-(3,4-Dihydroisoquinolin-2(1H)-yl)pentyl)amino)-3-(4-hydroxy-2,6-dimethylphenyl)-1-oxopropan-2-aminium Trifluoroacetate], the Ki in test [1] worked out at 142 ± 16 nM. In addition, in test [2] (Table 5), the “Potency, EC50 DOR” value was “DNS”.

In the case of `Cc1cc(O)cc(C)c1C[C@H](N)C(=O)NCc1cc(CN2CCCCC2)ccc1OCC1CC1.O=C(O)C(F)(F)F` [D, (S)-1-((2-(Cyclopropylmethoxy)-5-(piperidin-1-ylmethyl)benzyl)amino)-3-(4-hydroxy-2,6-dimethylphenyl)-1-oxopropan-2-aminium Trifluoroacetate], the Ki in test [1] came out at 11.2 ± 4 nM; in test [5], 325 ± 35 nM; in test [6], 6.5 ± 1.2 nM. For the same compound, the EC50 amounted to 158 ± 68 nM in test [2] and 377 ± 63 nM in test [3]. Besides, the “Potency, EC50 KOR” value in test [4] (Table 2) is “DNS”.

For `Cc1cc(O)cc(C)c1C[C@H](N)C(=O)NCCOCC(=O)N1CCc2ccccc2C1.O=C(O)C(F)(F)F` [K, (S)-1-((2-(2-(3,4-Dihydroisoquinolin-2(1H)-yl)-2-oxoethoxy)-ethyl)amino)-3-(4-hydroxy-2,6-dimethylphenyl)-1-oxopropan-2-aminium Trifluoroacetate], the values for the Ki in test [1], in test [5] and in test [6] were 17.5 ± 5.7 nM, 12.5 ± 2.5 nM and 1.28 ± 0.68 nM, respectively. Moreover, the “Potency, EC50 DOR” value in test [2] (Table 5) is “DNS”. Also, the EC50 in test [3] was found to be 2.29 ± 0.37 nM. Moreover, in test [4] (Table 5), the “Potency, EC50 KOR” value is “DNS”.

Take `COc1ccc(CN2CCCCC2)cc1CNC(=O)[C@@H](N)Cc1c(C)cc(O)cc1C.O=C(O)C(F)(F)F` [B, (S)-3-(4-Hydroxy-2,6-dimethylphenyl)-1-((2-methoxy-5-(piperidin-1-ylmethyl)benzyl)amino)-1-oxopropan-2-aminium Trifluoroacetate]: the Ki in test [1] came to 41 ± 16 nM; in test [6], 7.5 ± 2.2 nM. Further, the EC50 in test [2] was 143 ± 76 nM; in test [3], 740 ± 330 nM.

As to `Cc1cc(O)cc(C)c1C[C@H](N)C(=O)NCC(=O)NCCN1CCc2ccccc2C1.O=C(O)C(F)(F)F` [P, (S)-1-((2-((2-(3,4-Dihydroisoquinolin-2(1H)-yl)ethyl)amino)-2-oxoethyl)amino)-3-(4-hydroxy-2,6-dimethylphenyl)-1-oxopropan-2-aminium Trifluoroacetate], the Ki in test [1] stood at 7.3 ± 1.5 nM; in test [5], 107 ± 35 nM; in test [6], 1.32 ± 0.38 nM. The EC50 in test [2] is 99 ± 16 nM; in test [3], 6 ± 1 nM. Moreover, the “Potency, EC50 KOR” value in test [4] (Table 5) is “DNS”.

Consider `Cc1cc(O)cc(C)c1C[C@H](N)C(=O)N1CCN(CCN2CCc3ccccc3C2)CC1.O=C(O)C(F)(F)F` [M, (S)-1-(4-(2-(3,4-Dihydroisoquinolin-2(1H)-yl)ethyl)piperazin-1-yl)-3-(4-hydroxy-2,6-dimethylphenyl)-1-oxopropan-2-aminium Trifluoroacetate], for which the “Potency, EC50 KOR” value in test [4] (Table 5) is “DNS”. For the same compound, the Ki in test [5] is 173 ± 20 nM.

As for `Cc1cc(O)cc(C)c1C[C@H](N)C(=O)NCCOCCN1CCc2ccccc2C1.O=C(O)C(F)(F)F` [J, (S)-1-((2-(2-(3,4-Dihydroisoquinolin-2(1H)-yl)ethoxy)ethyl)amino)-3-(4-hydroxy-2,6-dimethylphenyl)-1-oxopropan-2-aminium Trifluoroacetate], the Ki is 113 ± 21 nM in test [1], 45 ± 12 nM in test [5] and 0.64 ± 0.19 nM in test [6]. The EC50 in test [2] amounted to 243 ± 23 nM; in test [3], 9.6 ± 3.1 nM; in test [4] it was 1060 ± 180 nM.

For `Cc1cc(O)cc(C)c1C[C@H](N)C(=O)N1CCC(CCN2CCc3ccccc3C2)CC1.O=C(O)C(F)(F)F` [L, (S)-1-(4-(2-(3,4-Dihydroisoquinolin-2(1H)-yl)ethyl)piperidin-1-yl)-3-(4-hydroxy-2,6-dimethylphenyl)-1-oxopropan-2-aminium Trifluoroacetate], in test [1], the inhibitory constant (Ki) was determined as 130 ± 17 nM. The “Potency, EC50 DOR” value in test [2] (Table 5) is listed as “DNS”.

Take `Cc1cc(O)cc(C)c1C[C@H](N)C(=O)NCc1cccc(CN2CCc3ccccc3C2)c1.O=C(O)C(F)(F)F` [E, (S)-1-((3-((3,4-Dihydroisoquinolin-2(1H)-yl)methyl)benzyl)amino)-3-(4-hydroxy-2,6-dimethylphenyl)-1-oxopropan-2-aminium Trifluoroacetate]: the Ki in test [1] came out at 4.8 ± 1 nM. Besides, the EC50 in test [2] amounted to 490 ± 170 nM.

On to `Cc1cc(O)cc(C)c1C[C@H](N)C(=O)NCC(=O)N(C)CCN1CCc2ccccc2C1.O=C(O)C(F)(F)F` [O, (S)-1-((2-((2-(3,4-Dihydroisoquinolin-2(1H)-yl)ethyl)(methyl)amino)-2-oxoethyl)amino)-3-(4-hydroxy-2,6-dimethylphenyl)-1-oxopropan-2-aminium Trifluoroacetate], for which the Ki in test [1] is 24.7 ± 5 nM; in test [5] it was 780 ± 570 nM; in test [6], 24 ± 11 nM. The “Potency, EC50 DOR” value in test [2] (Table 5) was “DNS”. In addition, the response in test [3] was half-maximal at 568 ± 56 nM (EC50). Moreover, the “Potency, EC50 KOR” value in test [4] (Table 5) was “DNS”.

In the case of `Cc1cc(O)cc(C)c1C[C@H](N)C(=O)NCc1cccc(CN2CCCCC2)c1.O=C(O)C(F)(F)F` [A, (S)-3-(4-Hydroxy-2,6-dimethylphenyl)-1-oxo-1-((3-(piperidin-1-ylmethyl)benzyl)amino)propan-2-aminium Trifluoroacetate], the figures for the Ki in test [1] and in test [5] were 143 ± 25 nM and 82.8 ± 7.3 nM, respectively. Also, the “Potency, EC50 DOR” value in test [2] (Table 2) is on record as “DNS”. Moreover, the “Potency, EC50 KOR” value in test [4] (Table 2) is recorded as “DNS”.
